Target: T1, MMP-1 (Homo sapiens, UniProt P03956)
T1 sequence (P03956 100-469): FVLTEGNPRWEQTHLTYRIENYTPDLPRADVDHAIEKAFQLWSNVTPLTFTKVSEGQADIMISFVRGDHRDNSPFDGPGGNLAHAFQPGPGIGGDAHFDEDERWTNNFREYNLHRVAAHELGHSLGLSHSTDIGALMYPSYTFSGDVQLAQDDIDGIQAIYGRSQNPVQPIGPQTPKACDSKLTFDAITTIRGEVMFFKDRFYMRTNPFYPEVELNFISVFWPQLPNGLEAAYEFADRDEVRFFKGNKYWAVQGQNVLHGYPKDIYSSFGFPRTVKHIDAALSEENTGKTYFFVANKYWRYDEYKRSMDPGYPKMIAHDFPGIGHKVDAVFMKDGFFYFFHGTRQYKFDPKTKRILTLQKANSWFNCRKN
Assay: MMP-1 inhibition, thiopeptide or fluorescent peptide substrate test procedure
Format: biochemical
Conditions: in vitro enzyme inhibition
Protocol: Test Procedures for Measuring MMP-1, MMP-9, and MMP-13 Inhibition
These standard pharmacological test procedures are based on the cleavage of a thiopeptide substrates such as Ac-Pro-Leu-Gly(2-mercapto-4-methyl-pentanoyl)-Leu-Gly-OEt by the matrix metalloproteinases MMP-1, MMP-13 (collagenases) or MMP-9 (gelatinase), which results in the release of a substrate product that reacts calorimetrically with DTNB (5,5′-dithiobis(2-nitro-benzoic acid)). The enzyme activity is measured by the rate of the color increase. The thiopeptide substrate is made up fresh as a 20 mM stock in 100% DMSO and the DTNB is dissolved in 100% DMSO as a 100 mM stock and stored in the dark at room temperature. […] The buffer, enzyme, vehicle or inhibitor, and DTNB/substrate are added in this order to a 96 well plate (total reaction volume of 200 μl) and the increase in color is monitored spectrophotometrically for 5 minutes at 405 nm on a plate reader and the increase in color over time is plotted as a linear line.
Alternatively, a fluorescent peptide substrate is used. […] Upon cleavage of the substrate by an MMP, the fluorescence that is generated is quantitated on the fluorescence plate reader. […] The reaction is read (excitation 340 nm, emission 444 nm) for 10 min. and the increase in fluorescence over time is plotted as a linear line. […]

- IC50: 138 nM
Compound: C=C=CCOc1ccc(S(=O)(=O)N(C)C(C(=O)NO)C(C)C)cc1 (stereo not shown) [Example 16, 2-[{[4-(2,3-Butadienyloxy)phenyl]sulfonyl}(methyl)amino]-N-hydroxy-3-methylbutanamide]
